Measurements as given in ChEMBL document CHEMBL1127552, “Approaches toward selective inhibition of nitric oxide synthase” (J Med Chem, 1994).

Target: T1, Nitric oxide synthase, inducible (Mus musculus, UniProt P29477)
T1 sequence (P29477 whole entry): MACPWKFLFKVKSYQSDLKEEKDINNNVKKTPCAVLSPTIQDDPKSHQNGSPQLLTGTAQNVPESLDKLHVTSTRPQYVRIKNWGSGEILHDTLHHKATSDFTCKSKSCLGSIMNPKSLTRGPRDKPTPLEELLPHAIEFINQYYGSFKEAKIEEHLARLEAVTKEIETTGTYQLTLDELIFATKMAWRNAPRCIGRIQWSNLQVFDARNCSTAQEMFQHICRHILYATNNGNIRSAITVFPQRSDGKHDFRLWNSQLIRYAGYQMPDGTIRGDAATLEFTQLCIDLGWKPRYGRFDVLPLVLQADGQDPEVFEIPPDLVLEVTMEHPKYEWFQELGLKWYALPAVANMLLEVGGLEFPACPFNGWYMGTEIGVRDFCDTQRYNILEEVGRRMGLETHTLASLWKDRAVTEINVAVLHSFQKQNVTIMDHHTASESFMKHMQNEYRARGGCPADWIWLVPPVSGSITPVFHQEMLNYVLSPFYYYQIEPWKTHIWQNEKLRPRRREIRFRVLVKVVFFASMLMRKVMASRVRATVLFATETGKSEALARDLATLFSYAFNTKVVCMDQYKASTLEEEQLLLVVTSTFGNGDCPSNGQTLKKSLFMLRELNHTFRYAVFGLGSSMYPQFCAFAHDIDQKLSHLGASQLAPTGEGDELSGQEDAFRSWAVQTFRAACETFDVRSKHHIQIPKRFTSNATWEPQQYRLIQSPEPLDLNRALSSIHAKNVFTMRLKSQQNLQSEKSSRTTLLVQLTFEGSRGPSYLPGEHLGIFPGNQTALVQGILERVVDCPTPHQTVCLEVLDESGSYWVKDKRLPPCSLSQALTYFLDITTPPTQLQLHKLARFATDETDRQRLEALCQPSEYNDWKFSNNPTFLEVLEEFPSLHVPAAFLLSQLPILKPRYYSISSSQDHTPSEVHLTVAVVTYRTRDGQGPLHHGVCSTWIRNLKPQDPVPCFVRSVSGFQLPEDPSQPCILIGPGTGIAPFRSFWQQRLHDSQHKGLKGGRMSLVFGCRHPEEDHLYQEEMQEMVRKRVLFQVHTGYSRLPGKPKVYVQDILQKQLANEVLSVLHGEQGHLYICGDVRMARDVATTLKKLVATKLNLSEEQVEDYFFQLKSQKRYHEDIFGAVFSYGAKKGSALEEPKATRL
Assay: Compound was tested for its inhibitory activity against macrophage NO2- synthesis

COC(=O)[C@@H](N)CCCNC(=N)N[N+](=O)[O-] [L-NAME]
IC50: 2600 nM
